Antibody variant affinities, Ab-95 light chain, assay 2

Values reported by Engelhart et al. 2022, doi:10.1038/s41597-022-01779-4 (FLAb copy).

The target is the same throughout: PDVDLGDISGINAS, from the HR2 region of SARS-CoV-2 spike.

The variants keep the heavy chain, the linker and the frameworks of Ab-95 (scFv order VH, a (GGGGS)3 linker, VL).
VH: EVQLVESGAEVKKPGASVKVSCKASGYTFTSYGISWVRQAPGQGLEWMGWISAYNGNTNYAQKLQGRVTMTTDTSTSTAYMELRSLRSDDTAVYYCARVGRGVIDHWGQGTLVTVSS
VL: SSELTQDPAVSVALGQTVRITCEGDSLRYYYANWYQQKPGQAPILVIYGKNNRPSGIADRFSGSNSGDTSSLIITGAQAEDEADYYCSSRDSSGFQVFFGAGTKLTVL

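Phage display of a naive human antibody library on the peptide gave the parent. AAYL52 was designed without a model: most single CDR substitutions and a random sample of double and triple ones. In AlphaSeq, yeast of one mating type display the scFv and yeast of the other type display the target. After mating in shaken culture at 30 °C for 16 h, diploids were selected and their barcode pairs sequenced. The ratio of observed to expected reads was calibrated, replicate by replicate, on BCL2-family standards whose Kd was known from biolayer interferometry. The assay was run in three technical replicates.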

Changes read parent residue, position, new residue, counted from the first residue of the VL shown. Numbers give log10(Kd / nM), so 0 is 1 nM and 3 is 1 µM. Smaller is tighter. A mean of the replicates is given; it leaves out those without a signal. "not detected" means that the variant was in the library but no mating with the target was seen in any replicate; the authors take this as a sign of poor binding, and no number exists. Three control strains display no target. For library AAYL52, 28% of the pairings with them gave a signal, with a median of 3.91 and one signal in twenty below 2.90, so weak values seen in few replicates may be background. Parent in this assay: reference entry 2.31, copy in this library 2.25.

| changes | mean log10 Kd (nM) | detected |
|---|---|---|
| R28T+Y29W+R53E | 3.52 | 3 of 3 |
| R28Q+A32T+N51W | 3.96 | 2 of 3 |
| E23M+A32Y+G49E | 4.22 | 1 of 3 |
| Y30W+S92C+G94S | 3.42 | 3 of 3 |
| G24M+Y31E+N52R | 2.56 | 3 of 3 |
| N33A+G49I+F98E | not detected | 0 of 3 |
| G24K+G94R+V97Q | 3.58 | 1 of 3 |
| G24M+L27Y+K50A | 3.81 | 1 of 3 |
| A32S+D91F | 3.96 | 2 of 3 |
| S26M+Y29M+S88D | not detected | 0 of 3 |
| Y30M+D91G+G94Q | 1.82 | 3 of 3 |
| E23C+S89M+Q96T | 2.98 | 3 of 3 |
| G24E+R28P+K50S | 3.17 | 1 of 3 |
| Y31V+K50F+P54G | 3.87 | 3 of 3 |
| G24H+Y31R+S88C | 2.77 | 3 of 3 |
| R53I+S92A+F98D | not detected | 0 of 3 |
| R90E+Q96L+V97W | 3.81 | 3 of 3 |
| L27Q+Y29V+V97D | 4.09 | 3 of 3 |
| E23V+S88F+V97F | 3.06 | 3 of 3 |
| Y29H+G49P+K50D | 3.36 | 3 of 3 |
| L27E+Y30A+F98L | 2.81 | 3 of 3 |
| N52C+R90Y+F95A | 2.72 | 3 of 3 |
| E23K+N33V+V97D | 3.67 | 2 of 3 |
| N33G+S88N+S92Y | 3.85 | 1 of 3 |
| G24F+A32L+S92W | 3.86 | 2 of 3 |
| G49W+S88M+S89F | not detected | 0 of 3 |
| L27N+K50A+N52A | 3.94 | 1 of 3 |
| L27P+R53M | 2.93 | 3 of 3 |
| S26R+A32W+G94H | 4.60 | 3 of 3 |
| G24H+R53G+D91P | 4.09 | 2 of 3 |
| K50Q+V97I | 3.73 | 3 of 3 |
| Y31R+P54T+S89R | 3.61 | 1 of 3 |
| S55D+S89T+D91S | 1.55 | 3 of 3 |
| E23F+F95Q+Q96D | 3.70 | 3 of 3 |
| G49D+S55K+G94F | 3.22 | 3 of 3 |
| D25W+Y31P+N33P | 4.51 | 3 of 3 |
| Y30M+S89Y+S93V | 1.36 | 3 of 3 |
| D25F+S26E+G49M | not detected | 0 of 3 |
| D25P+L27A+V97S | 3.42 | 2 of 3 |
| E23K+N51R | 3.03 | 3 of 3 |
| G49D+N51F+F98A | 3.56 | 2 of 3 |
| R53E+S89F+V97T | not detected | 0 of 3 |
| A32V+N51F+S55M | 4.14 | 2 of 3 |
| S26W+Y31M+V97R | 3.57 | 1 of 3 |
| D25F+S55D+D91R | 3.54 | 1 of 3 |
| G49K+S88M+S92H | 4.30 | 2 of 3 |
| Y31Q+G49R+S88T | not detected | 0 of 3 |
| A32W+N33Q+V97K | 4.03 | 1 of 3 |
| G49Q+S88Y+S93D | 4.30 | 3 of 3 |
| S26K+Y30R+N33L | 3.19 | 1 of 3 |
| D25G+Y31N+P54N | 1.55 | 3 of 3 |
| R28P+N52D+S93V | not detected | 0 of 3 |
| L27N+R90W+Q96V | 3.10 | 3 of 3 |
| E23I+Y29F+F95V | 2.67 | 3 of 3 |
| R90S+S92A+G94M | 3.63 | 2 of 3 |
| D25P+N33I+N51Q | 2.72 | 1 of 3 |
| Y30T+N33C+F98Y | 4.04 | 3 of 3 |
| D25I+L27K+R28P | 2.41 | 3 of 3 |
| R28D+Y30S+G94C | 2.83 | 3 of 3 |
| L27Y+Y29C+P54S | not detected | 0 of 3 |
| R28A+Y30T+N51M | 2.53 | 3 of 3 |
| N51A+G94I | 3.89 | 3 of 3 |
| E23I+K50L+G94V | 4.20 | 2 of 3 |
| R28C+Y29N+R53C | not detected | 0 of 3 |
| L27P+S89M+Q96F | 3.91 | 2 of 3 |

From the list, the first 5 with no signal in any replicate:

| changes | mean log10 Kd (nM) | detected |
|---|---|---|
| N33A+G49I+F98E | not detected | 0 of 3 |
| S26M+Y29M+S88D | not detected | 0 of 3 |
| R53I+S92A+F98D | not detected | 0 of 3 |
| G49W+S88M+S89F | not detected | 0 of 3 |
| D25F+S26E+G49M | not detected | 0 of 3 |